The species entered for experiment [1] is Homo sapiens. Put plainly: Selectivity index, ratio of IC50 for human CYP11B2 to IC50 for human CYP11B1.
The target in experiment [2] is T1, Cytochrome P450 11B2, mitochondrial (Homo sapiens, UniProt P19099).
T1 sequence (P19099 whole entry): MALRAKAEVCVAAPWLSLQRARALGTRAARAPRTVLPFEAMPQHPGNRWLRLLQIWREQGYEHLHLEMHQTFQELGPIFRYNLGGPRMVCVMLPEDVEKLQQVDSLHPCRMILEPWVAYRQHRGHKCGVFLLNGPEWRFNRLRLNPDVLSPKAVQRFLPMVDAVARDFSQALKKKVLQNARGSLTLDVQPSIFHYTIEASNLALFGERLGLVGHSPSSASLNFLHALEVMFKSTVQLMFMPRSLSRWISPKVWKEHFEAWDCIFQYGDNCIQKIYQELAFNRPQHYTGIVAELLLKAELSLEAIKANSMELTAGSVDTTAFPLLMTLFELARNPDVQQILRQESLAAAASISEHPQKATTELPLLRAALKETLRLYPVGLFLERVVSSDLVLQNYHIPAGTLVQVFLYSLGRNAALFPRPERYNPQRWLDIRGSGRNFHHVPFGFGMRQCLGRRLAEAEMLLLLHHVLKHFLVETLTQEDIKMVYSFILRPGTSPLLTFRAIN
The experiment can be described thus: Inhibition of human CYP11B2 expressed in hamster V79MZ cells using 11-deoxycorticosterone substrate. In kind it is cell-based.

Molecules are shown by their SMILES.

Consider `c1ccc2c(c1)ncn2CC12CC3CC(CC(C3)C1)C2`, for which the Ratio IC50 in experiment [1] worked out at 9.

With `CC(C)(C(=O)c1cccnc1)c1cccnc1` [METYRAPONE], the 50% inhibitory concentration (IC50) in experiment [2] stood at 0.072 µM.

These data come from ChEMBL document CHEMBL1649094, “First Selective CYP11B1 Inhibitors for the Treatment of Cortisol-Dependent Diseases” (ACS Med Chem Lett, 2011).
